Values of other authors, collected in patent US20240261236A1, “METHODS OF USING NMDA RECEPTOR ANTAGONISTS” (Seelos Therapeutics, Inc., priority 2021, published 2024).

Biological target: NMDA receptor
Conditions: binds to the NMDA receptor; Moaddel et al. 2013; cited from earlier work

**Q.** With `CNC1(c2ccccc2Cl)CCCCC1=O` (racemic) [intranasal racemic ketamine, 1:1 mixture of the two enantiomers of ketamine: (R)-2-(2-chlorophenyl)-2-(methylamino)cyclohexanone and (S)-2-(2-chlorophenyl)-2-(methylamino)cyclohexanone] as the molecule, how does the Ki read?
**A.** Its Ki is ~1060 nM.
